Data reported in article PMC6344527, “Toxicity and possible mechanisms of action of honokiol from Magnolia denudata seeds against four mosquito species” (Scientific Reports, 2019).

What was measured:
[1] = test system: third-instar larvae of insecticide-susceptible Culex pipiens pallens; test: contact mortality bioassay, 24 h exposure; conditions: Table 6, structure-activity series
[2] = test system: third-instar larvae of insecticide-susceptible Aedes aegypti; test: contact mortality bioassay, 24 h exposure; conditions: Table 7, structure-activity series

In the case of isoeugenol, the “LC50 (mg/L) (95% CI)” value [1] is reported as 79.72 (68.33–92.65) mg/L and the “LC50 (mg/L) (95% CI)” value [2] is reported as 81.26 (71.39–88.47) mg/L.
